Laboratory results from PMC5766103 (PLoS ONE, 2018).

The chains behind the UniProt entries cited, without tags or fusion partners. Residues count along the entry.
UniProt Q16552, 24-155: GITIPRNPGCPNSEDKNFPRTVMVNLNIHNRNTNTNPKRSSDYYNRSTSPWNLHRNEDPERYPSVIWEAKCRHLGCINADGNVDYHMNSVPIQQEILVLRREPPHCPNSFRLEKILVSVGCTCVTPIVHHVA

Assays:
[1] = system: human IL-17A; experiment: Cell-based neutralization assay: IL-17A-induced CXCL1/GROα in HT-29 cells; conditions: ~48 h
[2] = biological target: T1, IL-17A (Homo sapiens, UniProt Q16552); experiment: Surface plasmon resonance (BIAcore T200) binding of peptides to captured Avi-tagged IL-17A; conditions: for SPR ka1 / SPR kd1: 8°C, 50 μl/min, 10 mM HEPES pH 7.5, 150 mM NaCl, 0.005% P20, 3% DMSO, global fit, 1:1 binding model
T1 construct: His-tag; Flag-tag; made in house; host or cells: Sf9 insect cells (baculovirus)

[3] = system: IL-17RA:IL-17A; experiment: ELISA-based binding assay IL-17RA:IL-17A; format: biochemical, human
[4] = biological target: human IL-17A (#317-ILB; R&D Systems) (human, UniProt Q16552 24-155, biotin (EZ Link NHS-Biotin), in the ELISA); experiment: cell-based or functional assay
[5] = biological target: Avi-tagged IL-17A (IL-17A molecule with a single biotin tag per dimer) (human) (UniProt Q16552); experiment: AlphaScreen or HTRF; AlphaLISA competition: 2 nM IL-17RA-flag and 2 nM Avi-tagged IL-17A-His with peptide dilutions, 2 h at room temperature; streptavidin donor and anti-FLAG acceptor beads; 20 mM HEPES, 150 mM NaCl, 0.05% Tween-20, 0.1% HSA, pH 7, 1% DMSO; relative IC50, four parameter fit
[6] = biological target: Avi-tagged IL-17A (IL-17A molecule with a single biotin tag per dimer) (human) (UniProt Q16552); experiment: SPR; Avi-tagged IL-17A (6000–9000 RU) captured on a streptavidin chip; peptides flowed at 50 μl/min; 8°C; 10 mM HEPES pH 7.5, 150 mM NaCl, 0.005% P20, 3% DMSO; global fit, 1:1 binding model

SPR ka1 [2] [M⁻¹ s⁻¹] | SPR kd1 [2] [s⁻¹] | IC50 [5] [nM] | Kd [6] [nM] | Molecule | also measured
5510 | 0.0223 | – | – | CC[C@H](C)[C@H](NC(=O)[C@@H]1CSSC[C@H](N)C(=O)N[C@@H](CC(C)C)C(=O)N[C@@H](CC(=O)O)C(=O)N[C@@H](CC(C)C)C(=O)N[C@@H](C(C)C)C(=O)N[C@@H](Cc2ccc(O)cc2)C(=O)N[C@@H](CC(=O)O)C(=O)N2CCC[C@H]2C(=O)N[C@@H](Cc2c[nH]c3ccccc23)C(=O)NCC(=O)N[C@@H](C)C(=O)N[C@@H](CC(C)C)C(=O)N[C@@H](Cc2c[nH]cn2)C(=O)N1)C(=O)O [18–921] | –
7040 | 0.0286 | – | – | CSCC[C@@H]1NC(=O)[C@H](CC(=O)O)NC(=O)[C@H](Cc2ccc(O)cc2)NC(=O)[C@H](CCC(=O)O)NC(=O)[C@H](CC(C)C)NC(=O)[C@H](CCCNC(=N)N)NC(=O)[C@@H]2CCCN2C(=O)[C@@H](N)CSSC[C@@H](C(=O)N[C@@H](CC(C)C)C(=O)O)NC(=O)[C@H](Cc2c[nH]cn2)NC(=O)[C@H](CC(C)C)NC(=O)[C@H](C)NC(=O)CNC(=O)[C@H](Cc2ccccc2)NC1=O [18–927] | inhibition of human IL-17A binding to IL-17RA (in words) ([3]; dose range 0.128 nM to 10,000 nM): no inhibition
63100 | 0.00457 | – | – | CSCC[C@@H]1NC(=O)[C@H](CC(=O)O)NC(=O)[C@H](Cc2ccc(O)cc2)NC(=O)[C@H](CCC(=O)O)NC(=O)[C@H](CC(C)C)NC(=O)[C@H](C(C)C)NC(=O)[C@H](Cc2c[nH]c3ccccc23)NC(=O)[C@@H](N)CSSC[C@@H](C(=O)N[C@@H](CCCNC(=N)N)C(=O)O)NC(=O)[C@H](Cc2c[nH]cn2)NC(=O)[C@H](CC(C)C)NC(=O)[C@H](Cc2ccccc2)NC(=O)CNC(=O)[C@H](Cc2ccccc2)NC1=O [18–972] | –
89900 | 0.01315 | – | – | CSCC[C@H](NC(=O)[C@H](Cc1c[nH]cn1)NC(=O)[C@@H]1CSSC[C@H](NC(=O)[C@@H](NC(=O)[C@H](C)NC(=O)[C@H](CO)NC(=O)[C@H](CO)NC(=O)[C@@H](N)CC(=O)O)C(C)C)C(=O)N[C@@H](Cc2c[nH]c3ccccc23)C(=O)N[C@@H](C)C(=O)N[C@@H](Cc2ccccc2)C(=O)N2CCC[C@H]2C(=O)N[C@@H](Cc2c[nH]cn2)C(=O)N[C@@H](Cc2c[nH]cn2)C(=O)N2CCC[C@H]2C(=O)N[C@@H](CC(C)C)C(=O)N1)C(=O)N[C@@H](CCCCN)C(=O)N[C@@H](C)C(=O)N[C@H](C(=O)O)[C@@H](C)O [585–1] | fold tighter KD than parent peptide 18–1 ([2]; SPR KD of 585–1 versus 18–1): 84 fold; fold faster kon than 18–1 peptide ([2]; SPR kon of 585–1 versus 18–1): 39 fold; inhibition of IL-17A-induced CXCL1 production ([1]; 60 ng/mL human IL-17A, peptide 10 μM, CXCL1/GROα ELISA, mean of duplicate treatments): 42.5%; inhibition of human IL-17A binding to IL-17RA ([3]; peptide 10 μM, biotinylated IL-17A 250 ng/mL pre-incubated 1 h with peptide, 30 min on IL-17RA-Fc plate, mean of duplicates): 44.6%
– | – | 4980 | – | DSSAVCWAFPHHPLCHMKAT [585–1] | inhibition of human IL-17A-induced CXCL1 (GROα) production by HT-29 cells (IL-17A with its receptor on the cells); percent inhibition at 10 μM peptide [4]: 42.5%
– | – | 720 | 290 | CWALEYDMFGYLHCR [18–964] | –
– | – | 5300 | 4060 | CPRLEYDMFGALHCL [18–927] | –
– | – | – | 72 | CWVLEYDMFGFLHCR [18–972] | –
– | – | 1500 | 2410 | CFDLQYDPWGALHCI [18–903] | –
– | – | – | 2560 | CLDLQYDPWGALHCI [18–906] | –
– | – | 39 | 250 | DISAVCWAFPFDPECH [585–869] | –

Second part, the molecule before the results:

Molecule | SPR ka1 [2] [M⁻¹ s⁻¹] | SPR kd1 [2] [s⁻¹] | IC50 [5] [nM] | Kd [6] [nM] | also measured
CSCC[C@@H]1NC(=O)[C@H](CC(=O)O)NC(=O)[C@H](Cc2ccc(O)cc2)NC(=O)[C@H](CCC(=O)O)NC(=O)[C@H](CC(C)C)NC(=O)[C@H](CCCNC(=N)N)NC(=O)[C@@H]2CCCN2C(=O)[C@@H](NC(=O)[C@H](CCC(=O)O)NC(=O)[C@H](Cc2ccc(O)cc2)NC(=O)[C@H](C)N)CSSC[C@@H](C(=O)N[C@@H](CC(C)C)C(=O)N2CCC[C@H]2C(=O)N[C@@H](CO)C(=O)O)NC(=O)[C@H](Cc2c[nH]cn2)NC(=O)[C@H](CC(C)C)NC(=O)[C@H](C)NC(=O)CNC(=O)[C@H](Cc2ccccc2)NC1=O [18–1] | – | – | – | – | inhibition of human IL-17A-induced CXCL1 expression (in words) ([1]; highest concentration tested (dose range 0.05 nM to 50,000 nM)): minimal inhibition
CC[C@H](C)[C@H](NC(=O)[C@@H]1CSSC[C@H](N)C(=O)N[C@@H](Cc2ccccc2)C(=O)N[C@@H](CC(=O)O)C(=O)N[C@@H](CC(C)C)C(=O)N[C@@H](CCC(N)=O)C(=O)N[C@@H](Cc2ccc(O)cc2)C(=O)N[C@@H](CC(=O)O)C(=O)N2CCC[C@H]2C(=O)N[C@@H](Cc2c[nH]c3ccccc23)C(=O)NCC(=O)N[C@@H](C)C(=O)N[C@@H](CC(C)C)C(=O)N[C@@H](Cc2c[nH]cn2)C(=O)N1)C(=O)O [18–903] | 7570 | 0.0183 | – | – | –
CC[C@H](C)[C@H](NC(=O)[C@@H]1CSSC[C@H](N)C(=O)N[C@@H](CC(C)C)C(=O)N[C@@H](CC(=O)O)C(=O)N[C@@H](CC(C)C)C(=O)N[C@@H](CCC(N)=O)C(=O)N[C@@H](Cc2ccc(O)cc2)C(=O)N[C@@H](CC(=O)O)C(=O)N2CCC[C@H]2C(=O)N[C@@H](Cc2c[nH]c3ccccc23)C(=O)NCC(=O)N[C@@H](C)C(=O)N[C@@H](CC(C)C)C(=O)N[C@@H](Cc2c[nH]cn2)C(=O)N1)C(=O)O [18–906] | 6250 | 0.016 | – | – | –
CSCC[C@@H]1NC(=O)[C@H](CC(=O)O)NC(=O)[C@H](Cc2ccc(O)cc2)NC(=O)[C@H](CCC(=O)O)NC(=O)[C@H](CC(C)C)NC(=O)[C@H](C)NC(=O)[C@H](Cc2c[nH]c3ccccc23)NC(=O)[C@@H](N)CSSC[C@@H](C(=O)N[C@@H](CCCNC(=N)N)C(=O)O)NC(=O)[C@H](Cc2c[nH]cn2)NC(=O)[C@H](CC(C)C)NC(=O)[C@H](Cc2ccc(O)cc2)NC(=O)CNC(=O)[C@H](Cc2ccccc2)NC1=O [18–964] | 31700 | 0.00922 | – | – | –
CSCC[C@H](NC(=O)[C@H](CC(=O)O)NC(=O)[C@H](C)NC(=O)[C@H](CC(=O)O)NC(=O)[C@H](C)N)C(=O)N[C@H]1CSSC[C@@H](C(=O)N[C@@H](Cc2c[nH]cn2)C(=O)O)NC(=O)[C@H](Cc2c[nH]c3ccccc23)NC(=O)[C@@H]2CCCN2C(=O)[C@H](CO)NC(=O)[C@H]([C@@H](C)O)NC(=O)[C@@H]2CCCN2C(=O)[C@H](Cc2ccccc2)NC(=O)[C@H](Cc2ccccc2)NC(=O)[C@H](Cc2c[nH]c3ccccc23)NC1=O [585–865] | 134000 | 0.1227 | – | – | –
CC[C@H](C)[C@H](NC(=O)[C@@H](N)CC(=O)O)C(=O)N[C@@H](CO)C(=O)N[C@@H](C)C(=O)N[C@H](C(=O)N[C@H]1CSSC[C@@H](C(=O)N[C@@H](Cc2c[nH]cn2)C(=O)O)NC(=O)[C@H](CCC(=O)O)NC(=O)[C@@H]2CCCN2C(=O)[C@H](CC(=O)O)NC(=O)[C@H](Cc2ccccc2)NC(=O)[C@@H]2CCCN2C(=O)[C@H](Cc2ccccc2)NC(=O)[C@H](C)NC(=O)[C@H](Cc2c[nH]c3ccccc23)NC1=O)C(C)C [585–869] | 64500 | 0.016 | – | – | –
CC(C)C[C@@H]1NC(=O)[C@H](Cc2ccc(O)cc2)NC(=O)[C@@H]2CCCN2C(=O)[C@H](Cc2ccccc2)NC(=O)[C@H](C)NC(=O)[C@H](Cc2c[nH]c3ccccc23)NC(=O)[C@@H](NC(=O)[C@@H](NC(=O)[C@H](C)NC(=O)[C@H](CO)NC(=O)[C@H](CO)NC(=O)[C@@H](N)CC(=O)O)C(C)C)CSSC[C@@H](C(=O)N[C@@H](Cc2c[nH]cn2)C(=O)O)NC(=O)[C@H](CCC(=O)O)NC(=O)[C@@H]2CCCN2C1=O [585–876] | 93300 | 0.0162 | – | – | –
ADADMCWFFPTSPWCH [585–865] | – | – | 670 | 920 | –
CWVLEYDMFGALHCR (disulfide bond between Cys1 and Cys14) [18–902] | – | – | – | – | inhibition of human IL-17A-induced CXCL1 (GROα) production by HT-29 cells (IL-17A with its receptor on the cells); percent inhibition at 10 μM peptide [4]: 38.4%
DLSAVCWAFPWDPECH [585–870] | – | – | 16 | – | inhibition of human IL-17A-induced CXCL1 (GROα) production by HT-29 cells (IL-17A with its receptor on the cells); percent inhibition at 10 μM peptide [4]: 76.6%
CLDLVYDPWGALHCI [18–921] | – | – | 3100 | 4040 | –
DSSAVCWAFPYLPECH [585–876] | – | – | 48 | 170 | –
